# Target: T1, RIP3 (Homo sapiens, UniProt Q9Y572)
# Chains of the proteins cited; added tags and fusions are not shown. Lines headed by an entry give the natural chain unless they say otherwise; changes in a name come on top.
# UniProt Q9Y572: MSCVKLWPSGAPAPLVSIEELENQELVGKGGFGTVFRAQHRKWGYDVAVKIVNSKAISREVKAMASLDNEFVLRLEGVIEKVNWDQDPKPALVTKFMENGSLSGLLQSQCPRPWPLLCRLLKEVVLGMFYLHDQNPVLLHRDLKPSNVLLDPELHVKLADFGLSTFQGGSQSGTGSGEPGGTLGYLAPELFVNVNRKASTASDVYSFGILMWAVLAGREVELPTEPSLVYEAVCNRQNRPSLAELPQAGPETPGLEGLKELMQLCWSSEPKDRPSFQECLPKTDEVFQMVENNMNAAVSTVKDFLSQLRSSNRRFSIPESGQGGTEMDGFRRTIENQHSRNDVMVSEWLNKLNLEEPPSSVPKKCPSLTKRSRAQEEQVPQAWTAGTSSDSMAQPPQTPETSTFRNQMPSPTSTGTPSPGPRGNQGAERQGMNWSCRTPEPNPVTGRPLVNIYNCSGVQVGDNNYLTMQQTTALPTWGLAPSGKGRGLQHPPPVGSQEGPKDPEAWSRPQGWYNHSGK
# T1 construct: purchased DiscoverX (KINOMEscan service); host or cells: E. coli BL21-derived (T7 phage) or HEK293
# Assay: KINOMEscan binding assay, RIP3
# Conditions: equilibrium dissociation constant, class symbols
row,Structure (SMILES),Kd [µM]
1,"CCS(=O)(=O)Nc1ccc(-c2n[nH]c(Nc3cccc(OCCOC)n3)c2C(N)=O)cc1OCc1ccc(F)cc1 [Compound 174, 3-(4-(ethylsulfonamido)-3-((4-fluorobenzyl)oxy)phenyl)-5-((6-(2-methoxyethoxy)pyridine-2-yl)amino)-1H-pyrazole-4-carboxamide]",1 to 30
2,"NC(=O)c1c(-c2ccc(NS(=O)(=O)CC(F)F)c(OCc3ccc(F)cc3)c2)n[nH]c1Nc1cccc(C(F)(F)F)n1 [Compound 178, 3-(4-((2,2-difluoroethyl)sulfonamido)-3-((4-fluorobenzyl)oxy)phenyl)-5-((6-(trifluoromethyl)pyridine-2-yl)amino)-1H-pyrazole-4-carboxamide]",> 30
3,"Cc1cnc(Nc2[nH]nc(-c3ccc(NS(=O)(=O)CCC(F)(F)F)c(OCc4ccc(F)cc4)c3)c2C(N)=O)cn1 [Compound 183, 3-(3-((4-fluorobenzyl)oxy)-4-((3,3,3-trifluoropropyl)sulfonamido)phenyl)-5-((5-methylpyrazin-2-yl)amino)-1H-pyrazole-4-carboxamide]",> 30
4,"CCS(=O)(=O)Nc1ccc(-c2n[nH]c(Nc3cccnc3C(F)(F)F)c2C(N)=O)cc1OCc1ccc(F)cc1 [Compound 192, 3-(4-(ethylsulfonamido)-3-((4-fluorobenzyl)oxy)phenyl)-5-((2-(trifluoromethyl)pyridine-3-yl)amino)-1H-pyrazole-4-carboxamide]",> 30
5,CCS(=O)(=O)Nc1ccc(-c2n[nH]c(Nc3cccc(C(F)(F)F)n3)c2C(N)=O)cc1OCC1CCCCC1 [Compound 200],> 30
6,"CCS(=O)(=O)Nc1ccc(-c2n[nH]c(Nc3cnccn3)c2C(N)=O)cc1Oc1cccc(F)c1 [Compound 204, 3-(4-(ethylsulfonamido)-3-(3-fluorophenoxy)phenyl)-5-(pyrazin-2-ylamino)-1H-pyrazole-4-carboxamide]",> 30
7,NC(=O)c1c(-c2ccc(NS(=O)(=O)C(F)F)c(OCc3ccc(F)cc3)c2)n[nH]c1Nc1cccc(C(F)(F)F)n1 [Compound 217],> 30
8,"NC(=O)c1c(-c2ccc(NS(=O)(=O)CC(F)(F)F)c(OCc3ccccn3)c2)n[nH]c1Nc1cnccn1 [Compound 227, 5-[(pyrazin-2-yl)amino]-3-{3-[(pyridin-2-yl)methoxy]-4-(2,2,2-trifluoroethanesulfonamido)phenyl}-1H-pyrazole-4-carboxamide]",> 30
9,"CCS(=O)(=O)Nc1ccc(-c2n[nH]c(Nc3cnccn3)c2C(N)=O)cc1O[C@@H](C)c1ccccn1 [Compound 230, 3-{4-ethanesulfonamido-3-[(1S)-1-(pyridin-2-yl)ethoxy]phenyl}-5-[(pyrazin-2-yl)amino]-1H-pyrazole-4-carboxamide]",> 30
10,"NC(=O)c1c(-c2ccc(NS(=O)(=O)CC(F)(F)F)c(OCc3ccc(Cl)cc3)c2)n[nH]c1Nc1cnc(C(F)(F)F)cn1 [Compound 234, 3-{3-[(4-chlorophenyl)methoxy]-4-(2,2,2-trifluoroethanesulfonamido)phenyl}-5-{[5-(trifluoromethyl)pyrazin-2-yl]amino}-1H-pyrazole-4-carboxamide]",> 30
11,NC(=O)c1c(-c2ccc(NS(=O)(=O)CC(F)(F)F)c(OCc3ccc(F)cc3)c2)n[nH]c1Nc1ccccn1 [Compound 239],> 30

# The next lines start with the values.
row,Kd [µM],Structure (SMILES)
1,> 30,"NC(=O)c1c(-c2ccc(NS(=O)(=O)CC(F)(F)F)c(OCc3ccc(F)cc3)c2)n[nH]c1Nc1ccc(C(F)(F)F)nc1 [Compound 176, 3-(3-((4-fluorobenzyl)oxy)-4-((2,2,2-trifluoroethyl)sulfonamido)phenyl)-5-((6-(trifluoromethyl)pyridine-3-yl)amino)-1H-pyrazole-4-carboxamide]"
2,> 30,"CCS(=O)(=O)Nc1ccc(-c2n[nH]c(Nc3cnccn3)c2C(N)=O)cc1Oc1ccc(Cl)cc1 [Compound 185, 3-(3-(4-chlorophenoxy)-4-(ethylsulfonamido)phenyl)-5-(pyrazin-2-ylamino)-1H-pyrazole-4-carboxamide]"
3,> 30,"CCS(=O)(=O)Nc1ccc(-c2n[nH]c(Nc3cnccn3)c2C(N)=O)cc1OCC1CCCN(C)C1 (centres unmarked) [Compound 187, 3-(4-(ethylsulfonamido)-3-((1-methylpiperidin-3-yl)methoxy)phenyl)-5-(pyrazin-2-ylamino)-1H-pyrazole-4-carboxamide]"
4,> 30,"CCS(=O)(=O)Nc1ccc(-c2n[nH]c(Nc3ccnc(C(F)(F)F)n3)c2C(N)=O)cc1OCc1ccc(F)cc1 [Compound 195, 3-(4-(ethylsulfonamido)-3-((4-fluorobenzyl)oxy)phenyl)-5-((2-(trifluoromethyl)pyrimidin-4-yl)amino)-1H-pyrazole-4-carboxamide]"
5,> 30,"CCS(=O)(=O)Nc1ccc(-c2n[nH]c(Nc3cnccn3)c2C(N)=O)c(OCc2ccc(Cl)cc2)c1 [Compound 198, 3-(2-((4-chlorobenzyl)oxy)-4-(ethylsulfonamido)phenyl)-5-(pyrazin-2-ylamino)-1H-pyrazole-4-carboxamide]"
6,> 30,"NC(=O)c1c(-c2ccc(NS(=O)(=O)C(F)F)c(OCc3ccc(F)cc3)c2)n[nH]c1Nc1cnccn1 [Compound 202, 3-(4-((difluoromethyl)sulfonamido)-3-((4-fluorobenzyl)oxy)phenyl)-5-(pyrazin-2-ylamino)-1H-pyrazole-4-carboxamide]"
7,> 30,"CCS(=O)(=O)Nc1ccc(-c2n[nH]c(Nc3cnccn3)c2C(N)=O)cc1OCCc1ccccc1 [Compound 210, 3-(4-(ethylsulfonamido)-3-phenethoxyphenyl)-5-(pyrazin-2-ylamino)-1H-pyrazole-4-carboxamide]"
8,> 30,"CCS(=O)(=O)Nc1ccc(-c2n[nH]c(Nc3cnccn3)c2C(N)=O)cc1OCCc1cccc(F)c1 [Compound 219, 3-(4-(ethylsulfonamido)-3-(3-fluorophenethoxy)phenyl)-5-(pyrazin-2-ylamino)-1H-pyrazole-4-carboxamide]"
9,> 30,"COCCOc1cc(Nc2[nH]nc(-c3ccc(NS(=O)(=O)N(C)C)cc3)c2C(N)=O)ccn1 [Compound 221, 3-(4-((N,N-dimethylsulfamoyl)amino)phenyl)-5-((2-(2-methoxyethoxy)pyridin-4-yl)amino)-1H-pyrazole-4-carboxamide]"
10,> 30,"C[C@H](Oc1cc(-c2n[nH]c(Nc3cnccn3)c2C(N)=O)ccc1NS(=O)(=O)C(F)F)c1ccc(F)cc1 [Compound 223, 3-[4-(difluoromethanesulfonamido)-3-[(1S)-1-(4-fluorophenyl)ethoxy]phenyl]-5-[(pyrazin-2-yl)amino]-1H-pyrazole-4-carboxamide]"
11,> 30,"NC(=O)c1c(-c2ccc(NS(=O)(=O)C(F)F)c(OC(c3ccc(F)cc3)C3CCC3)c2)n[nH]c1Nc1cnccn1 (centres unmarked) [Compound 236, 3-{3-[cyclobutyl(4-fluorophenyl)methoxy]-4-(difluoromethanesulfonamido)phenyl}-5-[(pyrazin-2-yl)amino]-1H-pyrazole-4-carboxamide]"
12,> 30,"C[C@H](Oc1cc(NS(=O)(=O)C(F)F)ccc1-c1n[nH]c(Nc2cnccn2)c1C(N)=O)c1ccc(F)cc1 [Compound 243, 3-[4-(difluoromethanesulfonamido)-2-[(1S)-1-(4-fluorophenyl)ethoxy]phenyl]-5-[(pyrazin-2-yl)amino]-1H-pyrazole-4-carboxamide]"

# Reference: patent US12583836B2 (Anaxis Pharma Pty Ltd, priority 2020, dated 2026)
